The results in this text go back to paper PMC3293900, “Single Cycle Structure-Based Humanization of an Anti-Nerve Growth Factor Therapeutic Antibody” (PLoS ONE, 2012).

Protein sequences, listed by entry. Tags and fused reporters are not part of them. Residues count along the entry.
UniProt P01138, 122-241: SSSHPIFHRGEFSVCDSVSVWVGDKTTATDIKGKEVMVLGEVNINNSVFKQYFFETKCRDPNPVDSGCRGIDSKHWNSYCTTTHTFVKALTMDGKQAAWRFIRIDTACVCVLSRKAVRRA

For this test, the target named is T1, human Nerve Growth Factor (Homo sapiens, UniProt P01138).
T1 construct: human Nerve Growth Factor (beta-NGF), mature growth factor; also called hNGF; human NGF; source: obtained according to Covaceuszach et al. [77]
Briefly: SPR; BIACore; hNGF amine-coupled on CM5 chips (89, 93, 100 RU); Fab hum-αD11 0.39-25 nM injected in HBSEP pH 7.4 with 100 µg/ml BSA, 50 µl/min; triplicate; apparent constants. To be noted: both partners purified. (SPR reads the build-up and loss of mass on a sensor chip optically.)

B1: Fab fragment of the humanized anti-NGF antibody hum-αD11 (Fab, V domains shown)
VH: EVQLVESGGGLVQPGGSLRLSCAASGFSLTNNNVNWVRQAPGKGLEWVGGVWAGGATDYNSALKSRFTISRDNSKNTAYLQMNSLRAEDTAVYYCARDGGYSSSTLYAMDAWGQGTLVTVSS
VL: DIQMTQSPSSLSASVGDRVTITCRASEDIYNALAWYQQKPGKAPKLLIYNTDTLHTGVPSRFSGSGSGTDYTLTISSLQPEDFATYFCQHYFHYPRTFGQGTKVEIK
notes: as the VH of m3 (hum-αD11 VH); constant part of the Fab heavy chain; not described for the Fab provided by PanGenetics; as the Vκ of m3 (hum-αD11 Vκ); positions L46 and L87 mutated to the rat αD11 residue, Kabat numbering; constant part of the Fab light chain; also called Fab hum-αD11; source: kindly provided by PanGenetics UK Ltd
The koff is the rate constant with which the complex falls apart. Broadly, the kon is the rate constant with which the complex forms. Regarding B1, the off-rate (koff) turned out to be 1.1e-05 s⁻¹ and the on-rate (kon) stood at 380000 M⁻¹ s⁻¹.
